Results: patent US6060451A, “Thrombin inhibitors based on the amino acid sequence of hirudin” (The National Research Council of Canada, priority 1995, dated 2000)

Molecular target: human α-thrombin (Homo sapiens, UniProt P00734)
Experiment: Fluorogenic amidolytic assay of thrombin activity, hydrolysis of Tosyl-Gly-Pro-Arg-AMC (Table I)

| SMILES | Ki (read-out: Human Ki, human α-thrombin mediated hydrolysis of Tosyl-Gly-Pro-Arg-AMC, mean of three determinations ± SEM, ni = not inhibited) | Mode of inhibition (fluorogenic assay) |
| --- | --- | --- |
| CC[C@H](C)[C@H](NC(=O)[C@H](CCC(=O)O)NC(=O)[C@H](CCC(=O)O)NC(=O)[C@H](Cc1ccccc1)NC(=O)[C@H](CC(=O)O)NC(=O)CNC(=O)[C@H](CC(=O)O)NC(=O)[C@H](CC(N)=O)NC(=O)[C@H](Cc1c[nH]cn1)NC(=O)[C@H](CO)NC(=O)[C@H](CCC(N)=O)NC(=O)[C@H]1CCCN1C(=O)[C@H](CCCNC(=N)N)NC(=O)[C@@H]1CCCN1C(=O)[C@@H](NC(C)=O)[C@@H](C)O)C(=O)N1CCC[C@H]1C(=O)N[C@@H](CCC(=O)O)C(=O)N[C@@H](CCC(=O)O)C(=O)N[C@@H](Cc1ccc(O)cc1)C(=O)N[C@@H](CC(C)C)C(=O)N[C@@H](CCC(N)=O)C(=O)O [P54, [Thr^45, Arg^47, D-Pro^48]hirudin^45-65] | 72 ± 32 nM |  |
| CC[C@H](C)[C@H](NC(=O)[C@H](CCC(=O)O)NC(=O)[C@H](CCC(=O)O)NC(=O)[C@H](Cc1ccccc1)NC(=O)[C@H](CC(=O)O)NC(=O)CNC(=O)[C@H](CC(=O)O)NC(=O)[C@H](CC(N)=O)NC(=O)[C@H](Cc1c[nH]cn1)NC(=O)[C@H](CO)NC(=O)[C@H](CCC(N)=O)NC(=O)[C@@H]1CCCN1C(=O)[C@H](CCCNC(=N)N)NC(=O)[C@@H]1CCCN1C(=O)[C@@H](Cc1ccccc1)NC(C)=O)C(=O)N1CCC[C@H]1C(=O)N[C@@H](CCC(=O)O)C(=O)N[C@@H](CCC(=O)O)C(=O)N[C@@H](Cc1ccc(O)cc1)C(=O)N[C@@H](CC(C)C)C(=O)N[C@@H](CCC(N)=O)C(=O)O [P53, [D-Phe^45, Arg^47]hirudin^45-65] |  | pure competitive inhibitor |
